{"sequences": {"note": "The chains behind the UniProt entries cited, without tags or fusion partners.", "UniProt Q96RI1, whole entry": "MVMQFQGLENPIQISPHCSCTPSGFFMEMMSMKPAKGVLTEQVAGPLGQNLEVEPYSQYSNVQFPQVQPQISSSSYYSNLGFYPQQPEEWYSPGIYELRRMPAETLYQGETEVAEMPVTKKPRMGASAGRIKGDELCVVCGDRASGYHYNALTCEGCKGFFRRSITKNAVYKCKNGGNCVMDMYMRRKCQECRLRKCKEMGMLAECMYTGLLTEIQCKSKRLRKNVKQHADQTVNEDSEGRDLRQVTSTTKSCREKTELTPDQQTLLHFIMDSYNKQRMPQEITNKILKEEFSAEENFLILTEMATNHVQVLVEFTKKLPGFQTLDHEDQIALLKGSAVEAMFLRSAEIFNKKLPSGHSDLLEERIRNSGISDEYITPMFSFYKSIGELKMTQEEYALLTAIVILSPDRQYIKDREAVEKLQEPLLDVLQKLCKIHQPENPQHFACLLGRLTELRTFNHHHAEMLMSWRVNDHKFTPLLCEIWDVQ"}, "source": "patent US20060223879A1", "about": "“Non-steroidal farnesoid x receptor modulators” (priority 2002, published 2006)", "target": "FXR (Homo sapiens, UniProt Q96RI1)", "experiment": "cell-based transcription assay, FXR responsive promoter linked to a luciferase reporter", "data": [{"smiles": "COC(=O)/C=C/c1cccc(N(Cc2ccc(/C=C/c3c(F)cccc3F)cc2)C(=O)C(C)C)c1", "values": [{"measurement": "FXR activation (in words)", "value": "excellent activity"}]}]}
